# Reference: patent publication US11667656B2, “Crystalline forms of Tenofovir alafenamide” (Apotex Inc., priority 2021, dated 2023)
# Columns and labels:
# [1] = for Intrinsic Dissolution Rate: Wood apparatus, bath 37° C., 900 mL distilled water, 50 rpm, compressed 200-400 mg samples
# Description: Intrinsic dissolution rate (IDR) measurements were performed using a Wood apparatus (Pharma Test PT-DT8 instrument) having a bath temperature of 37° C. Samples were prepared by compressing 200-400 mg samples at 1.5 metric tons for 1 minute. A dissolution medium consisting of 900 mL distilled water, and rotation speed of 50 rpm, was used for each experiment.
# [2] = capped and uncapped samples, 40° C./75% RH, at least 3 months
Substance,Intrinsic Dissolution Rate [1],change in the crystalline form (PXRD) [2],"intrinsic dissolution rate (IDR), comparison ([1]; compared to crystalline tenofovir alafenamide fumarate (1:1) or tenofovir alafenamide succinate (1:1))"
tenofovir alafenamide succinate fumarate [Tenofovir alafenamide succinate fumarate Form APO-III],1.14 mg min^−1 cm^−2,,
tenofovir alafenamide succinate fumarate [Tenofovir alafenamide succinate fumarate Form APO-II],1.22 mg min^−1 cm^−2,no change in the crystalline form,higher
tenofovir alafenamide succinate fumarate [Tenofovir alafenamide succinate fumarate Form APO-I],1.11 mg min^−1 cm^−2,,
tenofovir alafenamide succinate malate,1.39 mg min^−1 cm^−2,,
